The text below walks through data of patent US9422357B2, “Glycosylated polypeptide and drug composition containing said polypeptide” (priority 2011, dated 2016).

Amino acid sequences for entries named in this document (tags omitted). A change or cut given only in a name is not applied to a line headed by its entry.
UniProt P31391: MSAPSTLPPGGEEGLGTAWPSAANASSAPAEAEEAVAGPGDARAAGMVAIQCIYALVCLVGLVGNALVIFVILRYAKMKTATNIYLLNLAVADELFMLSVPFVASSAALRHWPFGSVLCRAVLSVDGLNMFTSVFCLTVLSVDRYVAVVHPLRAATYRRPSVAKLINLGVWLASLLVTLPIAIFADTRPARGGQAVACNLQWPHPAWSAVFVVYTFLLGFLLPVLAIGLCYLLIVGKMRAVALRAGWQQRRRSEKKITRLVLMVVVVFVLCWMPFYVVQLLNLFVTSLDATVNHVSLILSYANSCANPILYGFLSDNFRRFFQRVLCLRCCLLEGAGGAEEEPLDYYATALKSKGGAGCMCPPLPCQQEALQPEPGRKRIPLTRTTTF
UniProt P30874: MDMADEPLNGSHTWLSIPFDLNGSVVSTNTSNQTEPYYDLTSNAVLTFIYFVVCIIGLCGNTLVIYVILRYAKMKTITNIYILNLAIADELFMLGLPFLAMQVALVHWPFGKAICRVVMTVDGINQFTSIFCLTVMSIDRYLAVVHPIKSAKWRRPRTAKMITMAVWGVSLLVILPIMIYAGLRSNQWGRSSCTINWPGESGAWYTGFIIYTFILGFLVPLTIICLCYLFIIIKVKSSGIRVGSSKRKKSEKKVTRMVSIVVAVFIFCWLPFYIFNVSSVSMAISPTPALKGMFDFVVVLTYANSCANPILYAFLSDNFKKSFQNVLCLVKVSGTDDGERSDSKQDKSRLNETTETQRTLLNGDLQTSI
UniProt P35346: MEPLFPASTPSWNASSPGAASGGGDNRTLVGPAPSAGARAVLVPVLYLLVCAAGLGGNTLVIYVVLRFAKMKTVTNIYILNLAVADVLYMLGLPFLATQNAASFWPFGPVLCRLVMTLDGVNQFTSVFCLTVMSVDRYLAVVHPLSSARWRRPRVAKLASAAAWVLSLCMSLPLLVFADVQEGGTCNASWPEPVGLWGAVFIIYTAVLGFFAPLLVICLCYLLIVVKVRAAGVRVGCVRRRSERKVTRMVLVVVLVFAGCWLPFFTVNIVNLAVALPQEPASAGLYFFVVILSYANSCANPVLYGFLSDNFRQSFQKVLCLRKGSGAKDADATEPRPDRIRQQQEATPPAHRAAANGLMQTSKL
UniProt P32745: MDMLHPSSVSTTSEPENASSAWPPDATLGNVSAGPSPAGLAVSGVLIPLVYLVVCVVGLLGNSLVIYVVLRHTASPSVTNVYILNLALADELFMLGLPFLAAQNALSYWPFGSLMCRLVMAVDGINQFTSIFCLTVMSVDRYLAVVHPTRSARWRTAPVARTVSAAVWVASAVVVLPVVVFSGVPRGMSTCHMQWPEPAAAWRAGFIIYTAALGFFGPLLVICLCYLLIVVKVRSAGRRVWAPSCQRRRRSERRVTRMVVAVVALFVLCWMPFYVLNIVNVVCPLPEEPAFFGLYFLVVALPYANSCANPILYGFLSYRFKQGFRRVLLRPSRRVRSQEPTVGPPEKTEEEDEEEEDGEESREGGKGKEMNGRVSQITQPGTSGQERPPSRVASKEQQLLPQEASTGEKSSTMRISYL
UniProt P30872, whole entry, species assumed: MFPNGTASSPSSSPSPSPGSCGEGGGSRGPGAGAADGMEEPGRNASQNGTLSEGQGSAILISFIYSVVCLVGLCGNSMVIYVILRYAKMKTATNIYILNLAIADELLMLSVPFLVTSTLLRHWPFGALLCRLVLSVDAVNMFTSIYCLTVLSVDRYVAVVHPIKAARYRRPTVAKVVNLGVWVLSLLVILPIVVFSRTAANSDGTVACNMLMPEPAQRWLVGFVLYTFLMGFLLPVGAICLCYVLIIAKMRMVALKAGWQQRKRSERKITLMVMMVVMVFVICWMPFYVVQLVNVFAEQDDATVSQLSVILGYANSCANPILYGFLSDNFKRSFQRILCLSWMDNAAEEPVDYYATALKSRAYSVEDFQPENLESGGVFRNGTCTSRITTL

Where two headings read alike, the source gives them in different places.

One data set has as its target SSTR4 (Homo sapiens, UniProt P31391). The experiment in a line: Competitive binding assay, SSTR4. The following applies: for Ki: Example 67-2 (text on Table 3B), read-out: Ki value against SSTR4.
The next data set has as its target SSTR2 (Homo sapiens, UniProt P30874). The experiment in a line: Competitive binding assay, SSTR2.
Another data set concerns the target SSTR5 (Homo sapiens, UniProt P35346). The experiment in a line: Competitive binding assay, SSTR5. To be noted: for Ki: read-out: Ki value against SSTR5, Example 67-2 (text on Table 3B).
A further data set deals with SSTR3 (Homo sapiens, UniProt P32745). The experiment in a line: Competitive binding assay, SSTR3. To be noted: for Ki: read-out: Ki value against SSTR3, Example 67-2 (text on Table 3B).
For data set [1], the target named is T1, SSTR1 (Homo sapiens, UniProt P30872). The data set is described as follows: Competitive binding assay, SSTR1.
Data set [2] is described as follows: Pharmacokinetics test with rats (intravenous and subcutaneous administration). The following applies: rat; for extension of t1/2 compared to the non-glycosylated form / increase of AUC compared to the non-glycosylated form: administered intravenously, versus SRIF28 or SRIF14.
In data set [3] the target is T1, SSTR1. The data set is described as follows: cAMP production suppression (agonist activity), SSTR1 receptor expression cells. It is filed as cell-based. To be noted: read-out: IC50 of the agonist activity, SSTR1; Table 3E, Example 67-4.
The mark [4] stands for this setting: read-out: Ki value against SSTR2, Example 67-2 (text on Table 3B).
Setting [5] is: read-out: Ki value against SSTR1, Example 67-2 (text on Table 3B).
Where [6] appears, read: Tables 5B-5F, intravenous, no unit printed in these tables (Table 5A footnote: nM).
Where [7] appears, read: Tables 5B-5F, intravenous, no unit printed in these tables (Table 5A footnote: min).
Where [8] appears, read: Tables 5B-5F, subcutaneous, no unit printed in these tables (Table 5A footnote: min).

As to 2C(disialo)-R-K-SRIF14 [Example 48], the Ki (usually a dissociation constant, usually derived from enzyme kinetics or from competition with a known ligand) lay in the range of 1.39 to 59 nM on SSTR4; 0.0536 to 6.51 nM at SSTR2 (setting [4]); 0.31 to 95 nM at SSTR5; 0.16 to 7.44 nM on SSTR3; 1.46 to 100 nM on SSTR1 [1] (setting [5]). In addition, in data set [2], the “extension of t1/2 compared to the non-glycosylated form” value stood at 63 folds. Besides, in data set [2], the “increase of AUC compared to the non-glycosylated form” value is reported as 42 folds.

Consider 3C(disialo)-R-K-SRIF14 [Example 49], for which, at SSTR4 (Example 67-2), the “Ki value against SSTR4 as folds that of SRIF14” value was no less than 46 folds. Also, in data set [2], the “extension of t1/2 compared to the non-glycosylated form” value is listed as 71 folds and the “increase of AUC compared to the non-glycosylated form” value turned out to be 36 folds.

As for Biotin-S1C(disialo)-SRIF28 [Example 44], the Ki at SSTR1 [1] (read-out: SSTR1 Ki, Table 3B, Example 67-2) turned out to be 3.05 nM.

In the case of “C(disialo(aminoethylamide))/S1C(disialo)-SRIF28 [Example 65]”, the “C0, intravenous administration” value in data set [2] (setting [6]) is recorded as 518. Moreover, in data set [2], the “extension of t1/2 compared to the non-glycosylated form” value was 6-21 folds and the “increase of AUC compared to the non-glycosylated form” value is 6-12 folds.

As for “C(disialo)-C12 linker-SRIF14 [Example 19]”, in data set [2], the “extension of t1/2 compared to the non-glycosylated form” value is reported as 22-33 folds and the “increase of AUC compared to the non-glycosylated form” value is given as 14-30 folds.

As to C(disialo)-K-SRIF14 [Example 40], the Ki at SSTR4 was in the range of 1.39 to 59 nM; at SSTR2 (setting [4]), 0.0536 to 6.51 nM; at SSTR5 it was 0.31 to 95 nM; on SSTR3, 0.16 to 7.44 nM; at SSTR1 [1] (setting [5]) it was 1.46 to 100 nM. Moreover, in data set [2], the “extension of t1/2 compared to the non-glycosylated form” value is on record as 33-38 folds. Further, in data set [2], the “increase of AUC compared to the non-glycosylated form” value is recorded as 44-55 folds.

With “C(disialo)-PEG linker-SRIF14 [Example 43]”, in data set [2], the “extension of t1/2 compared to the non-glycosylated form” value was 22-33 folds and the “increase of AUC compared to the non-glycosylated form” value is given as 14-30 folds.

With F25C(disialo)-SRIF28 [Example 38], the “Ki value against SSTR2 as folds that of SRIF14” value at SSTR2 (Example 67-2) is 310-5300 folds. Further, the “Ki value against SSTR3 as folds that of SRIF14” value on SSTR3 (Example 67-2) is listed as 310-5300 folds. On SSTR1 [1] (Example 67-2), the “Ki value against SSTR1 as folds that of SRIF14” value is 310-5300 folds.

In the case of S1-2C(disialo(Bn))-SRIF28 [Example 62], the Ki at SSTR4 was in the range of 1.39 to 59 nM; on SSTR2 (setting [4]) it was 0.0536 to 6.51 nM; on SSTR5, 0.31 to 95 nM; at SSTR3, 0.16 to 7.44 nM; at SSTR1 [1] (setting [5]) it was 1.46 to 100 nM. In addition, the “extension of t1/2 compared to the non-glycosylated form” value in data set [2] is on record as 6-21 folds. The “increase of AUC compared to the non-glycosylated form” value in data set [2] was 6-12 folds.

Consider “S1-2C(disialo(amide))-SRIF28 [Example 61]”, for which the Ki on SSTR4 was in the range of 1.39 to 59 nM; at SSTR2 (setting [4]), 0.0536 to 6.51 nM; on SSTR5 it was 0.31 to 95 nM; at SSTR3 it was 0.16 to 7.44 nM; at SSTR1 [1] (setting [5]) it was 1.46 to 100 nM. In addition, in data set [2], the “extension of t1/2 compared to the non-glycosylated form” value is listed as 6-21 folds. Further, the “increase of AUC compared to the non-glycosylated form” value in data set [2] was 6-12 folds.

On to S1-3C(asialo)-SRIF28 [Example 29], for which, in data set [2], the “extension of t1/2 compared to the non-glycosylated form” value came out at 5 folds and the “increase of AUC compared to the non-glycosylated form” value was 6 folds.

Consider S1-4C(disialo)-SRIF28 [Example 66], for which the Ki was 1.39 to 59 nM on SSTR4; 0.0536 to 6.51 nM at SSTR2 (setting [4]); 0.31 to 95 nM at SSTR5; 0.16 to 7.44 nM at SSTR3; 1.46 to 100 nM on SSTR1 [1] (setting [5]). Besides, the “extension of t1/2 compared to the non-glycosylated form” value in data set [2] came out at 48 folds. For the same substance, the “increase of AUC compared to the non-glycosylated form” value in data set [2] worked out at 15 folds.

In the case of S1C(Asn(disialo))-SRIF28 [Example 63], the IC50 (in general, the concentration needed to halve the response being measured) at SSTR1 [3] is 2 nM.

On to S1C(GlcNAc)-SRIF28 [Example 53], for which the Ki at SSTR4 lay within 1.39 to 59 nM; on SSTR2 (setting [4]), 0.0536 to 6.51 nM; at SSTR5 it was 0.31 to 95 nM; on SSTR3, 0.16 to 7.44 nM; on SSTR1 [1] (setting [5]), 1.46 to 100 nM.

Regarding S1C(asialo)-SRIF28 [Example 27], the Ki at SSTR4 was in the range of 1.39 to 59 nM; at SSTR2 (setting [4]), 0.0536 to 6.51 nM; on SSTR5, 0.31 to 95 nM; on SSTR3 it was 0.16 to 7.44 nM; at SSTR1 [1] (setting [5]), 1.46 to 100 nM. For the same substance, in data set [2], the “extension of t1/2 compared to the non-glycosylated form” value worked out at 10 folds. For the same substance, in data set [2], the “increase of AUC compared to the non-glycosylated form” value worked out at 10 folds.

As to S1C(diGlcNAc)-SRIF28 [Example 50], the Ki on SSTR4 is 1.39 to 59 nM; at SSTR2 (setting [4]) it was 0.0536 to 6.51 nM; on SSTR5, 0.31 to 95 nM; on SSTR3 it was 0.16 to 7.44 nM; at SSTR1 [1] (setting [5]) it was 1.46 to 100 nM.

With S1C(diMan)-SRIF28 [Example 51], the Ki at SSTR4 was in the range of 1.39 to 59 nM; on SSTR2 (setting [4]), 0.0536 to 6.51 nM; on SSTR5, 0.31 to 95 nM; on SSTR3, 0.16 to 7.44 nM; at SSTR1 [1] (setting [5]) it was 1.46 to 100 nM.

As for S1C(disialo(Bn))-SRIF28 [Example 59], the Ki was 1.39 to 59 nM on SSTR4; 0.0536 to 6.51 nM at SSTR2 (setting [4]); 0.31 to 95 nM at SSTR5; 0.16 to 7.44 nM on SSTR3; 1.46 to 100 nM at SSTR1 [1] (setting [5]). Besides, the “extension of t1/2 compared to the non-glycosylated form” value in data set [2] was 11-14 folds. The “increase of AUC compared to the non-glycosylated form” value in data set [2] is 7-12 folds.

With S1C(disialo(amide))-SRIF28 [Example 58], the inhibition constant (Ki) at SSTR4 is 1.39 to 59 nM; at SSTR2 (setting [4]) it was 0.0536 to 6.51 nM; on SSTR5, 0.31 to 95 nM; at SSTR3, 0.16 to 7.44 nM; at SSTR1 [1] (setting [5]) it was 1.46 to 100 nM. Also, the “extension of t1/2 compared to the non-glycosylated form” value in data set [2] is 11-14 folds. Also, in data set [2], the “increase of AUC compared to the non-glycosylated form” value is 7-12 folds.

With “S1C(disialo(aminoethylamide))-SRIF28 [Example 57]”, the Ki was 1.39 to 59 nM at SSTR4; 0.0536 to 6.51 nM at SSTR2 (setting [4]); 0.536 nM on SSTR2 (read-out: SSTR2 Ki, Table 3B, Example 67-2); 0.31 to 95 nM at SSTR5; 0.16 to 7.44 nM on SSTR3; 1.46 to 100 nM at SSTR1 [1] (setting [5]). For the same substance, in data set [2], the “extension of t1/2 compared to the non-glycosylated form” value is 11-14 folds. In addition, the “increase of AUC compared to the non-glycosylated form” value in data set [2] was 7-12 folds.

In the case of S1C(tetrasialo)-SRIF28 [Example 56], the “AUC, intravenous administration” value in data set [2] (Tables 5B-5F, intravenous, no unit printed in these tables (Table 5A footnote: min · nM)) is reported as 4851. Also, in data set [2] (setting [7]), the “MRT, intravenous administration” value is 23.0 and the “T1/2, intravenous administration” value is recorded as 20.9. Moreover, the “C0, intravenous administration” value in data set [2] (setting [6]) was determined as 471. The “BA, subcutaneous administration” value in data set [2] (Tables 5B-5F, subcutaneous, no unit printed in these tables (Table 5A footnote: %)) came out at 54. The “AUC, subcutaneous administration” value in data set [2] (Tables 5B-5F, subcutaneous, no unit printed in these tables (Table 5A footnote: min · nM)) is 2624. For the same substance, in data set [2] (setting [8]), the “MRT, subcutaneous administration” value was 59.4 and the “T1/2, subcutaneous administration” value is 40.5. The “Cmax, subcutaneous administration” value in data set [2] (Tables 5B-5F, subcutaneous, no unit printed in these tables (Table 5A footnote: nM)) worked out at 32.2.

In the case of T26C(disialo)-SRIF28 [Example 12], on SSTR2 (Example 67-2), the “Ki value against SSTR2 as folds that of SRIF14” value was 280-1600 folds. In addition, the “Ki value against SSTR5 as folds that of SRIF14” value on SSTR5 (Example 67-2) is given as 280-1600 folds.
